Data from patent publication US11168095B2, “ASK1 inhibiting agents” (BIOGEN MA INC., priority 2017, dated 2021).

Protein sequences, listed by entry. Tags and fused reporters are not part of them. Residues count along the entry.
UniProt Q99683, 649-946: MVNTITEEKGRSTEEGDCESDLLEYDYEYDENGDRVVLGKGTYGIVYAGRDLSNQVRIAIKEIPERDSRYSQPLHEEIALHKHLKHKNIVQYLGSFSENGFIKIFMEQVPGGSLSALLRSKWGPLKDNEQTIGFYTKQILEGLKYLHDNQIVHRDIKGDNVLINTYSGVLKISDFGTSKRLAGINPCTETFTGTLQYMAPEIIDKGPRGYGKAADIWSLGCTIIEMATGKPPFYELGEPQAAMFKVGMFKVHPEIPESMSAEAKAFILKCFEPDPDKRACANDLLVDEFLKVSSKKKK

Key:
GST-hASK1 = GST-hASK1 (Homo sapiens (Human), UniProt Q99683); assay: ASK1 TR-FRET assay; format: biochemical; conditions: 5 nM GST-hASK1, 100 μM ATP, 2 μM STK Substrate 3
Protocol: The protein kinase activity of 5 nM GST-hASK1(Life Technologies PV4011) was assayed with 100 μM ATP and 2 μM of HTRF biotinylated STK Substrate 3 (CisBio Kit 62ST3PEJ), at ambient temperature in 25 mM Hepes, pH 7.5, 50 mM NaCl, 10 mM MgCl2, 0.02% Brij-35, 1 mM DTT, and 1% DMSO.
After a 10 minute pre-incubation, ASK1 protein kinase activity was initiated by addition of 10 μL of 300 μM ATP.

[1] = target: ASK1 T838 auto phosphorylation in HEK-293T cells (Homo sapiens (Human), UniProt Q99683); assay: ASK1 (AUTO PHOS T838) assay, MSD format; format: cell-based
Protocol: The plates were incubated at 37° C. overnight. Media on plates was changed to OPTI-MEM, serum free media and cells were transfected with 9 μg of ASK1-V5 tagged full length plasmid using Lipofectamine 2000 (Invitrogen) and the plates were incubated at 37° C. overnight. Cells were trypsinized, counted on Nexcellometer and plated into 96 well tissue culture plates with 100,000 cells/well and 200 μL media. Cells were incubated for 4 hr at 37° C. then ASK1 compounds were added using a HP 300e. Compounds were tested at 20 μM with 3 fold, 10 point dilution points then incubated for 1 hr at 37° C. A lysis buffer (Cell Signaling) was prepared with protease and phosphatase inhibitor and maintained at 4° C. until use. Media from cells was discarded and 120 μL of cold lysis buffer was added to the cells, the plate was shaken 4° C. for 1 hr. Lysate was mixed using Apricot liquid handler; aspirating up and down 16 times at high speed using 50 μL volume. […] Plates were then incubated on a plate shaker overnight at 4° C. […] Plates were immediately read on a MSD Instrument Reader where chemoluminecense signal was measured. Data was analyzed using Graph Pad or Genedata, the data was normalized and plotted, % activity versus log of compound concentration. […]

## O=C1Nc2cccc(n2)-c2nncn2CCCCOc2ccc(-c3ccccn3)cc21 [Example 25, 5^5-(Pyridin-2-yl)-1^4H-6-oxa-3-aza-2(2,6)-pyridina-1(3,4)-triazola-5(1,2)-benzenacyclodecaphan-4-one]
GST-hASK1
  IC50: < 100 nM
[1]
  IC50: 1000 to 10000 nM
